Earlier results on 1 compound are cited in patent publication US20120108632A1, “[…] INHIBITORS FOR OCULAR HYPERTENSION CONTROL AND THE TREATMENT OF GLAUCOMA” (ALCON RESEARCH, LTD., priority 2006, published 2012).

Protein sequences, listed by entry. Tags and fused reporters are not part of them.
UniProt P49356, whole entry: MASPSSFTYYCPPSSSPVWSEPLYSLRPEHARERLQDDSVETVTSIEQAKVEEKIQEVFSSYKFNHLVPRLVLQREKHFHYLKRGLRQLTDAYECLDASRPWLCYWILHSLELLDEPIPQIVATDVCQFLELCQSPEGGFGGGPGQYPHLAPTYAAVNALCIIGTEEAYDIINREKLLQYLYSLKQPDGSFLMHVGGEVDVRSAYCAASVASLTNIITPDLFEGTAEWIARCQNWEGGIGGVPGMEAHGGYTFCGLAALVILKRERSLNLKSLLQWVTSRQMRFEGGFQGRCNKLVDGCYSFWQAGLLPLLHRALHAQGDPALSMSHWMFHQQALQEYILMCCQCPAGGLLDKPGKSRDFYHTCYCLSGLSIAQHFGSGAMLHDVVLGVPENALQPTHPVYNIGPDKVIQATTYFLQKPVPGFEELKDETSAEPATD

This series has as its target Ftase (Homo sapiens, UniProt P49356). The conditions noted are these: read-out: Ftase IC50; cited from earlier work.

Regarding `Cc1nn(C)c(C)c1C(=O)N1CCN(Cc2nc3ccccc3n2CC(C)(C)C)CC1`, the IC50 was 12 nM.

Usually IC50 stands for the concentration that gives 50% inhibition.
